## Apparent affinities of Ab-14 variants for a coronavirus HR2 peptide

Data: MIT Lincoln Laboratory AlphaSeq set, Engelhart et al. 2022, doi:10.1038/s41597-022-01779-4, as distributed in FLAb.

All variants were tested on one target, the spike HR2 peptide PDVDLGDISGINAS (SARS-CoV-2).

Each scFv is VH, a 15-residue (Gly4Ser)3 linker, VL, as in the parent Ab-14, and differs from it in the CDRs of the heavy chain only.
VH: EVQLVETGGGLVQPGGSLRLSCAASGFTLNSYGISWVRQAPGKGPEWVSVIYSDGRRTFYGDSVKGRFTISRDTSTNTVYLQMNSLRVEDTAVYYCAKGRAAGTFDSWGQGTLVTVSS
VL: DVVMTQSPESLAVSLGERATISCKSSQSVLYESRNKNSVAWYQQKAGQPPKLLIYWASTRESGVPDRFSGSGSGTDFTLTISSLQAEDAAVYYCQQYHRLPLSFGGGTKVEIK

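Phage display of a naive human antibody library on the peptide gave the parent. In library AAYL49, one, two or three CDR residues were substituted; doubles and triples were drawn at random. The assay is AlphaSeq: two haploid yeast populations carry antibody and antigen on their surface. The frequency of each diploid, read from paired DNA barcodes, reflects how well the two displayed proteins bind. Scores were corrected for input abundance and mapped to Kd with protein pairs of known affinity run in the same pool. Each pool was mated in three replicate cultures.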

Each variant is given by its three heavy chain CDRs, as the data file delimits them; those of the parent are GFTLNSYGIS, VIYSDGRRTFYGDSVK, GRAAGTFDS.
All variants listed here change I51 of the VH, counted from its first residue.
Kd is apparent (estimated from mating counts) and averaged on the log scale over replicates with a signal. Smaller is tighter.
A pair that was not seen in any replicate is written "nd"; this usually means weak binding, but a binder can also be missed.
Order: sorted from the lowest average up, undetected variants last.
Nonspecific signal, from three strains lacking the peptide, appeared in 15% of pairings of library AAYL49, centred on 11 µM (5% of these signals below 680 nM); values are not corrected for it. Also given: how often the same scFv was detected with the empty control strains.

Variant GFTLNSYGIS | VLYSDGRRTFYGDSVK | GRAAGTFDS gave 43 nM (3 of 3 replicates; controls 0 of 9). Variant GFTLNSYGIS | VFYSDGPRTFYGDSVK | GRAWGTFDS showed 370 nM (1 of 3 replicates; controls 2 of 9). With EFTLNSYGIS | VVYSDGRRTFYGDSVK | GRAAGTFDS the result was 510 nM (3 of 3 replicates; controls 0 of 9). Variant GDTLNSYGIS | VAYSDGRRTFYGDSVK | GRAAGTFPS showed 2.9 µM (2 of 3 replicates; controls 0 of 9). With GFTKNSYGIS | VPYSDGRRTFYGDSVK | GRAAGCFDS the result was 6.0 µM (2 of 3 replicates; controls 4 of 9). For GETLNSYGIS | VFYPDGRRTFYGDSVK | GRAAGTFDS, the assay gave 9.3 µM (2 of 3 replicates; controls 2 of 9). For GFTLNSYGIS | VHRSDGRRTFYWDSVK | GRAAGTFDS, the assay gave 14 µM (2 of 3 replicates; controls 2 of 9). With GFTLNSYGIS | VGYSDGRRTFYGQAVK | GRAAGTFDS the result was 18 µM (1 of 3 replicates; controls 3 of 9).

Variant IFTLNSYGIQ | VVYSDGRRTFYGDSVK | GRAAGTFDS showed 18 µM (2 of 3 replicates; controls 2 of 9). Variant GFTLNSYGIS | VSYSDGRRTLYGDSHK | GRAAGTFDS gave 20 µM (1 of 3 replicates; controls 1 of 9). For GFTLNSYDIS | VSYSDGRRTFYGDSVK | GRAAGTMDS, the assay gave 31 µM (2 of 3 replicates; controls 6 of 9). Variant GFTLNSYGIS | VRYSDGRHTFYGDSVK | GRAAGTFWS gave 39 µM (1 of 3 replicates; controls 1 of 9). With GFTLNSYGIS | VTYSDGRRTFYGDSVK | IRAAKTFDS the result was 52 µM (1 of 3 replicates; controls 0 of 9). Variant GFTLNSYGIS | VHYSDGRRTFYGDSVK | GRAAGTFDS gave 55 µM (2 of 3 replicates; controls 2 of 9). Variant GFTLNSYGIW | VSYSDGRRTFYGDSVK | GRANGTFDS showed 83 µM (3 of 3 replicates; controls 3 of 9). For GFTLNSYGIS | VPYSDGRITFYDDSVK | GRAAGTFDS, the assay gave 130 µM (1 of 3 replicates; controls 3 of 9).

Variant GFTLNYYGIS | VDYSDRRRTFYGDSVK | GRAAGTFDS gave 150 µM (1 of 3 replicates; controls 1 of 9). Variant GFTLHSYGIS | VWYSDGRRTFYGDSVK | GRAAGTSDS showed 160 µM (3 of 3 replicates; controls 7 of 9). Variant GFTENSYGIS | VFYSDGRRTFYGDSVK | GAAAGTFDS showed nd (0 of 3 replicates; controls 2 of 9). Variant GFTLNTYGIS | VTYSDGRRTFYGDSVK | GRAAGTFDC showed nd (0 of 3 replicates; controls 1 of 9). Variant GFTLNSDGIS | VAYSDGRRTFYGDSTK | GRAAGTFDS showed nd (0 of 3 replicates; controls 0 of 9). For GFTLNSYGNS | VKYSDGRKTFYGDSVK | GRAAGTFDS, the assay gave nd (0 of 3 replicates; controls 2 of 9). Variant GFTLNSYGIS | VFYSDKRRTFYIDSVK | GRAAGTFDS showed nd (0 of 3 replicates; controls 0 of 9). Variant GRTLNSYGIS | VHYSDGRRTFYPDSVK | GRAAGTFDS gave nd (0 of 3 replicates; controls 0 of 9).

Variant GFTLNSYGIS | VHYSDLRRTFYGDSVT | GRAAGTFDS showed nd (0 of 3 replicates; controls 1 of 9). For GFTLNGYGII | VKYSDGRRTFYGDSVK | GRAAGTFDS, the assay gave nd (0 of 3 replicates; controls 1 of 9). Variant GFTLNSYGIS | VNYSDGRRTFYGDSVC | GRCAGTFDS gave nd (0 of 3 replicates; controls 3 of 9). Variant IFTLNSYGIA | VPYSDGRRTFYGDSVK | GRAAGTFDS gave nd (0 of 3 replicates; controls 0 of 9). With GFTLNPYGIS | VPYSDGRRTFYGDNVK | GRAAGTFDS the result was nd (0 of 3 replicates; controls 2 of 9). Variant GFTLNSYGIS | VKYSDGRMTFYGDSKK | GRAAGTFDS gave nd (0 of 3 replicates; controls 0 of 9). With GFTLNSYGIS | VGYSDGRRTMYGDSVE | GRAAGTFDS the result was nd (0 of 3 replicates; controls 0 of 9). Variant GFTLNEYGIS | VNYSDGRRTFYGDSVM | GRAAGTFDS showed nd (0 of 3 replicates; controls 1 of 9).

Variant CFLLNSYGIS | VMYSDGRRTFYGDSVK | GRAAGTFDS gave nd (0 of 3 replicates; controls 1 of 9). Variant GFTLNSYGIS | VEYSDIRRTFYGDSVK | GRAAGIFDS gave nd (0 of 3 replicates; controls 0 of 9). Variant GFTLNSYGIS | VQYSDGRRTFYGDSVK | GSAAGTMDS gave nd (0 of 3 replicates; controls 0 of 9). Variant GFTLNSYGIS | VRYSDGRRTPYGDSVK | GRAAGTFDS showed nd (0 of 3 replicates; controls 2 of 9). For GFTLNNYGIS | VTYSDGRRTFYGDSVK | GRAAGTFDT, the assay gave nd (0 of 3 replicates; controls 0 of 9). Variant GFTNNSYGIS | VCYSDGRRTFYGDSYK | GRAAGTFDS gave nd (0 of 3 replicates; controls 2 of 9). Variant GFTLNSYGIS | RAYSDGRRTCYGDSVK | GRAAGTFDS showed nd (0 of 3 replicates; controls 0 of 9). Variant GFILNSYGIS | VQYSDGRRTFYGDSVK | GAAAGTFDS gave nd (0 of 3 replicates; controls 0 of 9).

Picked from the list: the 4 lowest averages where every replicate gave a value.

CDR-H1	CDR-H2	CDR-H3	Kd (apparent)	seen in	signal with controls
GFTLNSYGIS	VLYSDGRRTFYGDSVK	GRAAGTFDS	43 nM	3/3	0/9
EFTLNSYGIS	VVYSDGRRTFYGDSVK	GRAAGTFDS	510 nM	3/3	0/9
GFTLNSYGIW	VSYSDGRRTFYGDSVK	GRANGTFDS	83 µM	3/3	3/9
GFTLHSYGIS	VWYSDGRRTFYGDSVK	GRAAGTSDS	160 µM	3/3	7/9